Patent US20260041680A1, “METHODS OF TREATING CANCER WITH LONG-ACTING TOPOISOMERASE I INHIBITOR” (priority 2022, published 2026)
Where two headings read alike, the source gives them in different places.

Assays:
[1] = humans
[2] = mice
[3] = PLX038 Q3W; for SN-38 AUC (AUC0-∞): calculated from the models; for Cmax: read-out: SN-38 Cmax
[4] = system: HT-29 human colon cancer xenograft; assay: HT-29 human colon cancer xenograft, antitumor activity and tolerability; type: in vivo, nude rat; details: PLX038 50, 100 or 200 mg/kg IV once a week for 2 weeks
[5] = for tolerability: Grade 3 diarrhea
[6] = total SN-38 14 mg/m^2/cycle, free SN-38 delivered 4 mg/m^2/cycle
[7] = total SN-38 21 mg/m^2/cycle, free SN-38 delivered 6 mg/m^2/cycle
[8] = total SN-38 31 mg/m^2/cycle, free SN-38 delivered 9 mg/m^2/cycle
[9] = total SN-38 46 mg/m^2/cycle, free SN-38 delivered 13 mg/m^2/cycle
[10] = total SN-38 62 mg/m^2/cycle, free SN-38 delivered 17 mg/m^2/cycle
[11] = total SN-38 107 mg/m^2/cycle, free SN-38 delivered 32 mg/m^2/cycle

Substance: O-[7-(tetra-polyethylene glycol ether)-carboxamido-1-cyano-2-heptyl]-N-(10′-methoxy-7′-ethyl-camptothecin)-N-[4′-(diethylcarbamoyl)phenyl)] carbamate [PLX038]
- elimination half-life [1]: ~120 h
- liver/GI exposure of SN-38 (SN-38 from PLX038, evident from low SN-38G/SN-38): very low
- systemic SN-38 as % of Cmax (at gap of 48 hr): 76%
- systemic SN-38 as % of Cmax (at gap of 120 h (5 days)): 50%
- systemic SN-38 concentration (at gap of 120 h (5 days)): ~27 nM
- SN-38G level (at the dose of PLX038 used in Schedule 1): barely detectable
- reduction of GI exposure to SN-38 (changing from a 2- to 5 day gap schedule): ~2 fold
- reduction of systemic SN-38 level at time PARP inhibitor is introduced (changing from a 2 to 5 day gap schedule): ~1.5 fold
- t1/2 of SN-38G from PLX038 (human): 120 h
- Cmax (read-out: systemic SN-38 Cmax, human, Schedule 1 PLX038 dose): ~55 nM
- efflux from xenograft tumors (xenograft tumors; compared to normal tissues): extremely slow
- tmax for tumor accumulation (xenograft tumors; rodent models): ~100 h
- elimination half-life [2]: ~20 h
- SN-38 AUC (AUC0-∞) ([3]; total SN-38 14 mg/m^2/cycle): 1,660 ± 560 (4) nM · h
- SN-38 t1/2 [3, 6]: 97 ± 11.4 (4) h
- SN-38 AUC (AUC0-∞) ([3]; total SN-38 21 mg/m^2/cycle): 1,756 ± 1071 (2) nM · h
- SN-38 t1/2 [3, 7]: 91 ± 3.7 (2) h
- SN-38 AUC (AUC0-∞) ([3]; total SN-38 31 mg/m^2/cycle): 2,513 (1) nM · h
- SN-38 t1/2 [3, 8]: 90 (1) h
- SN-38 AUC (AUC0-∞) ([3]; total SN-38 46 mg/m^2/cycle): 4,000 nM · h
- SN-38 t1/2 [3, 9]: 85 h
- SN-38 AUC (AUC0-∞) ([3]; total SN-38 62 mg/m^2/cycle): 6,126 nM · h
- SN-38 t1/2 [3, 10]: ~100 h
- SN-38 AUC (AUC0-∞) ([3]; total SN-38 82 mg/m^2/cycle (2,300 mg/m^2 PLX038: simulated)): 11,356 nM · h
- SN-38 t1/2 ([3]; total SN-38 82 mg/m^2/cycle, free SN-38 delivered 23 mg/m^2/cycle (2,300 mg/m^2 PLX038: simulated from lower doses assuming t1/2 = 100 h)): ~100 h
- SN-38 AUC (AUC0-∞) ([3]; total SN-38 107 mg/m^2/cycle): 17,820 ± 2550 ^ nM · h
- SN-38 t1/2 [3, 11]: 118 ± 31 h
- Cmax [3, 6]: 22 ± 6.2 nM
- Cmax [3, 7]: 14 ± 4.7 nM
- Cmax [3, 8]: 24 ± 13 nM
- Cmax [3, 9]: 30 nM
- Cmax [3, 10]: 46 nM
- Cmax ([3]; total SN-38 82 mg/m^2/cycle, free SN-38 delivered 23 mg/m^2/cycle (2,300 mg/m^2 PLX038: simulated from lower doses, dose linearity of Cmax)): 68 nM
- Cmax [3, 11]: 186 ± 88 nM
- body weight loss [4]: 2%
- diarrhea [4]: no diarrhea
- maximal administered dose (MAD) ([5]; PLX038 every 3 weeks, patients): 3060 mg/m^2
- gastrointestinal (GI) toxicity ([5]; Phase 1, thus far): neither expected or observed
- tolerability ([5]; intermediate dose 2600 mg/m^2): not tolerated
- tolerability ([5]; intermediate dose 2800 mg/m^2): not tolerated
